This data set in a line: plasma pharmacokinetics. Particulars: over a range of 5 mg-500 mg.

Regarding `N[C@H]1C[C@@H](C(=O)O)CC1=C(F)F`, the Cmax dose proportionality entry is on record as “increases in a dose proportional manner”.

The values above are taken from patent US20190298674A1 (Ovid Therapeutics, Inc., priority 2018, published 2019).
